{
  "source": "patent US8337447B2",
  "about": "“Device for delivery of antifibrotic agents and method” (priority 2006, dated 2012)",
  "system": "human conjunctival fibroblasts",
  "experiment": "Polymer cytotoxicity in vitro, toluidine blue staining after 7 days of culture",
  "format": "cell-based",
  "conditions": "8 mm disk in 60 mm dish, 7 days in culture",
  "note": "Entries after “also recorded” stand apart in the source; their conditions may differ.",
  "data": [
    {"smiles": "CO[C@@]12[C@H](COC(N)=O)C3=C(C(=O)C(C)=C(N)C3=O)N1C[C@@H]1N[C@@H]12", "note": "[MMC, mitomycin C]", "values": [
      {"measurement": "effect on cell growth / cytotoxicity", "result": "no additional cytotoxic effect; also recorded: inhibited cell proliferation in a dose-dependent fashion"}
    ]}
  ]
}
